{
  "source": "PubChem BioAssay AID652025",
  "about": "(National Center for Advancing Translational Sciences (NCATS), 2013)",
  "note": "The list shows a part of the results, in another mix than the full data. Active and inactive are the calls of the source. Cut-off read from the data, not from the text of the source: active = activation above about 50%; inconclusive = mostly about 30% to 49%; inactive = weaker than that.",
  "data": [
    {"assay": "qHTS of IL-2 Activators; note: 0% is about no effect", "settings": "IL-2 activation reporter assay, cell-based qHTS; hits give high values; in transgenic mouse T cells; stimulated with anti-CD3/CD4/CD28 beads", "description": "The adaptive immune response against any infectious agent begins with the activation of an antigen specific T cell. This relatively rare and inert (\"naive\") T cell undergoes a massive proliferative expansion and differentiation process to generate sufficient number of potent pathogen-specific effector T cells. The effector T cells fight the infection by making cytokines and helping other cells to become fully armed as well. If any naive T cell has antigen receptors (TCRs) that can be activated by self peptides, then a variety of regulatory mechanisms kick in to prevent this cell from performing to its full potential. These processes collectively constitute the phenomenon of immunological tolerance and their failure leads to autoimmunity. One arm of tolerance involves generation of biochemical negative feedback downstream of the TCR (tuning). This is especially relevant to self antigens present in the body over long periods of time (chronic), which form the bulk of our proteome. The negative feedback serves to tune the TCR signaling, such that the ambient antigenic stimulation is nullified intracellularly. Unfortunately, this critical machinery serves as a target for chronic viral, bacterial and parasitic infections (as well as tumors), which can evade a robust immune response, simply by allowing T cells to tune down their signaling to pathogen or malignancy derived antigens. As such, disrupting the tuning in such cases would allow the tolerant T cell to function again and deliver a robust effector response.\nIf a therapeutic can restore responsiveness to the tuned down T cell, even for a short time, they could combat the pathogen without any additional immunization. To that end, we have developed a sensitive HTS T cell based assay based on IL-2. This assay will be screened against the Molecular Libraries Small Molecule Repository (MLSMR) to find small molecules that could elicit this response.\nNIH Chemical Genomics Center [NCGC]\nNIH Molecular Libraries Probe Centers Network [MLPCN]\nAssay Submitter (PI): Ron Schwartz, NIAID\n4 microL (750 cells/well) of unstimulated transgenic mouse T cells (columns 1-3,5-48) are dispensed into Aurora LoBase, black clear-bottom 1536-well assay plates; column 4 receives an identical concentration of transgenic memory T cells as a non-tolerant control. Compounds are then transferred via Kalypsys pin tool equipped with 1536-pin array (10 nL slotted pins, V&P Scientific, San Diego, CA). Following addition of compound and a 60 minute incubation, 1 microL of bead stimulation solution ((0.04 micron Fluospheres (Life technologies, CA) coated with 10ug/ml each anti-CD3 and anti-CD4 (clones 2C11 and GK1.5, BD Biosciences, CA) and mixed with 1ug/ml anti-CD28 (clone PV-1, BD biosciences, CA)). columns 2-48) is added to stimulate the IL-2 response pathway; media is instead added to column 1 as an unstimulated control, while PMA/ionomycin (Sigma Aldrich, MO) is added to column 3 as a control for IL-2 tolerance bypass. The plates are then incubated at 37 degrees C for 18 hours. EGFP and DsRed signal are then detected using an Acumen eX3 Explorer fluorescent plate cytometer. All cells are dispensed in cell media containing EHAA (Quality Biologicals, MD), RPMI (Quality Biologicals, MD), Glutamine (Life Technologies, CA), Penicillin/Streptomycin (Quality Biologicals, MD), 2-ME (Sigma Aldrich, MO) and 10% FBS (Gemini Bioproducts, CA) .", "values": [
      {"smiles": "CC1=NCCc2c1[nH]c1ccccc21.O=[N+]([O-])c1cc([N+](=O)[O-])c(O)c([N+](=O)[O-])c1", "activation": "inactive: 0.0829%"},
      {"smiles": "Cc1ccc(C)c(NP(C)(=O)Oc2ccccc2)c1", "note": "(stereo not given)", "activation": "inactive: -2.65%"},
      {"smiles": "CP(=O)(Nc1cccc(Br)c1)Oc1ccccc1", "note": "(stereo not given)", "activation": "inactive: -0.866%"},
      {"smiles": "Cc1cc(C)cc(OP(C)(=O)Nc2ccccn2)c1", "note": "(stereo not given)", "activation": "inactive: -0.444%"},
      {"smiles": "CCOC(=O)c1ccc(NP(C)(=O)Oc2cc(C)cc(C)c2)cc1", "note": "(stereo not given)", "activation": "inactive: -0.365%"},
      {"smiles": "Cc1cc(C)cc(OP(C)(=O)Nc2ccc(C)cc2C)c1", "note": "(stereo not given)", "activation": "inactive: -2.48%"},
      {"smiles": "COc1ccccc1OP(C)(=O)Nc1cccc(Br)c1", "note": "(stereo not given)", "activation": "inactive: -0.331%"},
      {"smiles": "Cc1nc2ccc3ccccc3c2s1.O=[N+]([O-])c1cc([N+](=O)[O-])c(O)c([N+](=O)[O-])c1", "activation": "inactive: -0.75%"},
      {"smiles": "O=[N+]([O-])c1cc([N+](=O)[O-])c(-c2cnn(-c3ccccc3)c2)c([N+](=O)[O-])c1", "activation": "inactive: 8.43%"},
      {"smiles": "CN(Cc1cccnc1)C(=O)COc1ccc(Cl)c(Cl)c1.O=[N+]([O-])c1cc([N+](=O)[O-])c(O)c([N+](=O)[O-])c1", "activation": "inactive: 0.313%"},
      {"smiles": "O=[N+]([O-])c1cc([N+](=O)[O-])c(-n2nnc3ccccc32)c([N+](=O)[O-])c1", "activation": "inactive: -0.0544%"},
      {"smiles": "COc1ccc(-c2ccccn2)cc1.O=[N+]([O-])c1cc([N+](=O)[O-])c(O)c([N+](=O)[O-])c1", "activation": "inactive: -0.366%"},
      {"smiles": "CP(=O)(Nc1ccc(SC(F)(F)F)cc1)Oc1ccccc1", "note": "(stereo not given)", "activation": "inactive: -5.49%"},
      {"smiles": "CCCOc1ccc(NP(C)(=O)Oc2ccc(Cl)cc2)cc1", "note": "(stereo not given)", "activation": "inactive: -0.933%"},
      {"smiles": "CN1CCCCC1COC(=O)C1(O)c2ccccc2CCc2ccccc21", "note": "(stereo not given)", "activation": "inactive: 0.712%"},
      {"smiles": "COc1ccccc1OP(C)(=O)Nc1c(C)cccc1C", "note": "(stereo not given)", "activation": "inactive: -2.99%"},
      {"smiles": "O=[N+]([O-])c1cc([N+](=O)[O-])c(Nc2nnnn2CCO)c([N+](=O)[O-])c1", "activation": "inactive: -3.37%"},
      {"smiles": "CC1=C2N=C(C=C3N=C(C(C)=C4[N-][C@@](C)([C@@H]5N=C1[C@](C)(CCC(=O)NC[C@@H](C)OP(=O)([O-])O[C@H]1[C@@H](O)[C@@H](n6cnc7cc(C)c(C)cc76)O[C@@H]1CO)[C@H]5CC(N)=O)[C@@](C)(CC(N)=O)[C@@H]4CCC(N)=O)[C@@](C)(CC(N)=O)[C@@H]3CCC(N)=O)C(C)(C)[C@@H]2CCC(N)=O.[C-]#N.[Co+3]", "activation": "inactive: 0.069%"},
      {"smiles": "CP(=O)(Nc1ccccc1Br)Oc1ccccc1", "note": "(stereo not given)", "activation": "inactive: 0.433%"},
      {"smiles": "COc1ccccc1OP(C)(=O)Nc1ccccc1", "note": "(stereo not given)", "activation": "inactive: -0.0939%"},
      {"smiles": "CP(=S)(Nn1cnnc1)Oc1ccccc1", "note": "(stereo not given)", "activation": "inactive: 0.716%"},
      {"smiles": "CP(=O)(Nc1ccccn1)Oc1ccc(Cl)cc1", "note": "(stereo not given)", "activation": "inactive: 0.721%"},
      {"smiles": "O=[N+]([O-])c1cc([N+](=O)[O-])c(O)c([N+](=O)[O-])c1.c1ccc(Oc2ccncc2)cc1", "activation": "inactive: -1.46%"},
      {"smiles": "CCOC(=O)c1ccc(NP(C)(=O)Oc2ccc(OC)cc2)cc1", "note": "(stereo not given)", "activation": "inactive: -0.115%"},
      {"smiles": "CCOP(C)(=S)SCC(=O)NC(C)C(=O)O", "note": "(stereo not given)", "activation": "inactive: -2.23%"},
      {"smiles": "Cc1cc(C)cc(OP(C)(=O)Nc2ccc(SC(F)(F)F)cc2)c1", "note": "(stereo not given)", "activation": "inactive: -4.9%"},
      {"smiles": "CCc1ccc(OP(C)(=O)N2CCN(c3ccc([N+](=O)[O-])cc3)CC2)cc1", "note": "(stereo not given)", "activation": "inactive: -0.47%"},
      {"smiles": "CP(=O)(NC(=O)Nc1ccccc1)Oc1ccccc1", "note": "(stereo not given)", "activation": "inactive: -1.91%"},
      {"smiles": "CP(=O)(Oc1ccccc1)OC(c1ccccc1)C(F)(F)F", "note": "(stereo not given)", "activation": "inactive: 0.319%"},
      {"smiles": "CP(=O)(Nc1ccc(SC(F)(F)F)cc1)Oc1ccc(Cl)cc1", "note": "(stereo not given)", "activation": "inactive: -0.428%"},
      {"smiles": "Cc1cccc(C)c1OP(C)(=O)Nc1ccc(SC(F)(F)F)cc1", "note": "(stereo not given)", "activation": "inactive: 0.038%"},
      {"smiles": "COc1ccccc1-c1ccccn1.O=[N+]([O-])c1cc([N+](=O)[O-])c(O)c([N+](=O)[O-])c1", "activation": "inactive: -0.684%"},
      {"smiles": "CCN(CC)CCCOC(=O)C(O)(c1ccccc1)c1ccccc1", "activation": "inactive: 0.923%"},
      {"smiles": "Cc1cc(C)cc(OP(C)(N)=O)c1", "note": "(stereo not given)", "activation": "inactive: 0.154%"},
      {"smiles": "COc1ccc(OP(C)(=O)Nc2cccc(F)c2)cc1", "note": "(stereo not given)", "activation": "inactive: -1.83%"},
      {"smiles": "COc1ccccc1OP(C)(=O)Nc1cc(Cl)ccc1C", "note": "(stereo not given)", "activation": "inactive: -0.838%"},
      {"smiles": "Cc1ccc(NP(C)(=O)Oc2ccccc2)c(C)c1", "note": "(stereo not given)", "activation": "inactive: -2.14%"},
      {"smiles": "COc1ccccc1OP(C)(=O)Nc1ccc(C)cc1", "note": "(stereo not given)", "activation": "inactive: 0.81%"},
      {"smiles": "CCOC(=O)c1ccc(NP(C)(=O)Oc2ccccc2)cc1", "note": "(stereo not given)", "activation": "inactive: 0.921%"},
      {"smiles": "O=[N+]([O-])c1ccc2c(c1)C=Nc1ccccc1O2", "activation": "inactive: -3.5%"},
      {"smiles": "Cc1cccc(C)c1OP(C)(N)=O", "note": "(stereo not given)", "activation": "inactive: -1.06%"},
      {"smiles": "CC(C)(C)c1ccc(OP(C)(=O)Nc2ccc(SC(F)(F)F)cc2)cc1", "note": "(stereo not given)", "activation": "inactive: -0.662%"},
      {"smiles": "O=[N+]([O-])c1cc([N+](=O)[O-])c(Nc2cccnc2)c([N+](=O)[O-])c1", "activation": "inactive: -0.465%"},
      {"smiles": "CP(=O)(OCCOc1ccccc1)OCCOc1ccccc1", "activation": "inactive: -0.314%"},
      {"smiles": "CP(=O)(Nc1ccc(Cl)cc1Cl)Oc1ccccc1", "note": "(stereo not given)", "activation": "inactive: -1.49%"},
      {"smiles": "CCCCCCCCCCCCCCCC1C[N+](C)(C)CCOP(C)(=O)O1", "note": "(stereo not given)", "activation": "inactive: -8.12%"},
      {"smiles": "COc1ccccc1OP(C)(=O)Nc1ccc(C)c(C)c1", "note": "(stereo not given)", "activation": "inactive: 0.311%"},
      {"smiles": "COc1ccc(OP(C)(=O)Nc2ccccc2Br)cc1", "note": "(stereo not given)", "activation": "inactive: 2.46%"},
      {"smiles": "Cc1cc(C)cc(OP(C)(=O)Nc2cccc(C(F)(F)F)c2)c1", "note": "(stereo not given)", "activation": "inactive: 0.723%"},
      {"smiles": "COc1ccccc1OP(C)(=O)Nc1ccc(C)cc1C", "note": "(stereo not given)", "activation": "inactive: 0.272%"},
      {"smiles": "CP(=O)(Nc1ccccn1)Oc1ccccc1", "note": "(stereo not given)", "activation": "inactive: -1.51%"},
      {"smiles": "CCc1ccc(OP(C)(=O)O)cc1", "activation": "inactive: -0.136%"},
      {"smiles": "O=[N+]([O-])c1cc([N+](=O)[O-])c(Nc2ccccn2)c([N+](=O)[O-])c1", "activation": "inactive: -0.9%"},
      {"smiles": "Cc1c(NP(C)(=O)Oc2ccc(C(C)C)cc2)c(=O)n(-c2ccccc2)n1C", "note": "(stereo not given)", "activation": "inactive: -1.36%"},
      {"smiles": "COc1ccc(OP(C)(=O)Nc2ccccn2)cc1", "note": "(stereo not given)", "activation": "inactive: -2.13%"}
    ]}
  ]
}
